Here are results for one substance from patent publication US8178083B2, “Treatment of optic neuritis” (Ares Trading, S.A., priority 2005, dated 2012).

Data set [1] concerns patient with demyelinating optic neuritis and remitting/relapsing MS. The data set is described as follows: Example 1 case study, optical coherence tomography (OCT) in optic neuritis associated with MS. The class given is in vivo, human. An excerpt: Objective: To evaluate effect of subcutaneous interferon beta-1a (Rebif) on axonal loss/survival in demyelinating optic neuritis (ON) associated with multiple sclerosis (MS) using optical coherence tomography (OCT). A case study is presented.
Methods: The patient underwent a standard neuro-ophthalmic examination, including visual acuity, afferent pupil defect, intraocular pressure, and color vision testing. MRI assessed brain and spinal cord lesion load. For purposes of analysis, each eye was divided into 12 sectors and OCT measurements were taken at baseline, 3-, 6-, 9- and 12-months. Results: A person presented with unilateral ON in the right eye, and was treated with high dose intravenous methylprednisolone according to the Optic Neuritis Treatment Trial protocol. The patient was asymptomatic for over 4 years, then presented with ON in the left eye and a large hyperintense MRI brain lesion. […] Upon diagnosis with remitting/relapsing MS, the patient was treated with methylprednisolone, followed by Rebif sc 44 mcg tiw. […] Conclusions: OCT is a reliable and non-invasive means of quantifying axon loss/survival. […] RFNL thickness in the unaffected eye may decrease over time. […] Early diagnosis and aggressive treatment with IFN beta may improve long-term clinical outcomes.

In data set [2] the test system is patients with RRMS and unilateral ON. As to the kind of experiment: Example 2 serial OCT open label proof-of-concept study in RRMS and unilateral optic neuritis. It is filed as in vivo, human. Conditions: pulse IV MP followed by Rebif titrated to 44 mcg tiw; for number of sectors (of 12 per eye) with significantly decreased RNFL thickness: clinically affected eyes. An excerpt:
Objective: Optical coherence tomography (OCT) measures retinal nerve fiber layer (RNFL) thickness. This study used serial OCT in patients with remitting/relapsing multiple sclerosis (RRMS) and optic neuritis (ON) to assess axonal changes concurrent with high dose, high frequency interferon beta-1a sc (Rebif) therapy. Methods: Patients (N=18) in this ongoing prospective open label proof-of-concept study were included if they had RRMS and unilateral ON and were excluded if they had edema of the optic nerve at baseline or were currently treated with other DMTs. Patients were treated with pulse IV methylprednisolone (MP) according to the Optic Neuritis Treatment Trial protocol, followed immediately by Rebif at 22 mcg tiw titrated to 44 mcg tiw within 2 weeks. RNFL thickness was measured at 12 sectors per eye with Stratus OCT at baseline, 3, 6, 9, and 12 months. Paired t-tests compared changes from baseline to each time point for affected and unaffected eyes separately. MRI data were analyzed for correlation with OCT in each eye type. Response (>4% increase from baseline) was analyzed by sector and number of responding sectors in each eye type.

The subject of data set [3] is Vesicular Stomatitis virus in WISH cells. The class given is cell-based.
Where [4] appears, read: methylprednisolone followed by Rebif sc 44 mcg tiw.

In the case of interferon beta-1a [Rebif], in data set [1] (Rebif sc 44 mcg tiw), the relapse-free period amounted to 24 months and the tolerability entry is recorded as “well tolerated”. For the same substance, the “new MRI lesions” value in data set [1] (during the last 24 months, Rebif sc 44 mcg tiw) is recorded as “without evidence of new MRI lesions”. Besides, the “serial OCT analysis, RNFL thickness, left eye” value in data set [1] (left eye, methylprednisolone followed by Rebif sc 44 mcg tiw) is recorded as “slow increase in RNFL thickness in a subset of sectors”. Moreover, in data set [1] (setting [4]), the MRI brain lesion entry was “resolved with a small area of decreased signal intensity” and the visual measures entry is given as “improved”. Further, the “serial OCT analysis, right eye” value in data set [1] (right eye (earlier ON), methylprednisolone followed by Rebif sc 44 mcg tiw) is on record as “continued axonal loss”. The “number of sectors (of 12 per eye) with significantly decreased RNFL thickness” value in data set [2] (by 3 months) is 5 sectors. Moreover, in data set [2] (by last post-baseline visit (up to 12 months)), the “number of sectors (of 12 per eye) with significantly decreased RNFL thickness” value came to 6 sectors. In addition, the “change of RNFL thickness” value in data set [2] (clinically unaffected eyes, at 3 months or last post-baseline visit) was “no significant changes”. In addition, the antiviral activity contained result in data set [3] (Rebif 44 mcg) is “approximately 12 MIU”. Besides, the “specific activity (antiviral activity)” value in data set [3] (reference standard calibrated against WHO natural interferon beta standard) is recorded as “approximately 270 million international units (M”.
